CycPeptMPDB entries from one study

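The data file gives no further conditions (lipid, pH, time, direction or concentration), and values from different papers need not be comparable. Other peptides of the study may be missing here. Peptides that the database sets to -10, its floor, are left out.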

PAMPA measures passive passage through an artificial lipid membrane.
Caco-2 values are permeabilities across monolayers of Caco-2 human intestinal cells.
Values are log10 P with P in cm/s, so -5 is more permeable than -7.
Entries marked < or ≤ lay at or below the stated limit.
"–" marks a cell with nothing listed here.

| structure (SMILES) | PAMPA (log10 cm/s) | Caco-2 (log10 cm/s) |
|---|---|---|
| CC(C)C[C@H]1NC(=O)[C@H](C)NC(=O)[C@H](Cc2ccccc2)NCCCCCCN(C)C1=O | -4.70 | -3.72 |
| CC(C)C[C@@H]1NC(=O)[C@H](C)NCCCCCCNC(=O)[C@H](Cc2ccccc2)NC1=O | -4.50 | -5.24 |
| CC(C)C[C@H]1NC(=O)[C@@H](C)NCCCCCCNC(=O)[C@H](CO)NC1=O | -5.50 | – |
| CC(C)C[C@@H]1NC(=O)[C@H](C)NC(=O)[C@H](Cc2ccccc2)NCCCCCCN(C)C1=O | -4.30 | -4.36 |
| CC(C)C[C@@H]1NC(=O)[C@H](C)NC(=O)[C@H](Cc2ccccc2)NCCCCNC1=O | -4.70 | -5.19 |
| CC(C)C[C@@H]1NC(=O)[C@H](C)NC(=O)[C@H](Cc2ccccc2)NCCCCCCCCCNC1=O | -4.50 | -4.08 |
| CC(C)C[C@@H]1NC(=O)CN(C)C(=O)[C@H](Cc2ccccc2)NCCCCCCNC1=O | -4.70 | -5.64 |
| CC(C)C[C@@H]1NCCCCCCNC(=O)[C@H](C)NC(=O)[C@H](Cc2ccccc2)NC1=O | -4.50 | -4.77 |
| CC(C)C[C@@H]1NC(=O)[C@@H](Cc2ccc(O)cc2)NC(=O)[C@@H](C)NCCCCCCNC1=O | -6.60 | – |
| CC(C)CN1CC(=O)N(C)CCCCCCN[C@@H](Cc2ccccc2)C(=O)N[C@@H](C)C1=O | -4.50 | -3.58 |
| CC(C)C[C@@H]1NC(=O)[C@H](C)NC(=O)[C@H](Cc2ccccc2)N(C)CCCCCCNC1=O | -5.20 | -4.38 |
| CC(C)CN1CC(=O)NCCCCCCN[C@@H](Cc2ccccc2)C(=O)N[C@@H](C)C1=O | -4.30 | -3.99 |
| CC(C)C[C@@H]1NC(=O)[C@H](C)NC(=O)[C@H](Cc2ccccc2)NCCCCCCCCCCNC1=O | -4.50 | -4.35 |
| CC(C)C[C@H]1C(=O)NCCCCCCN[C@@H](Cc2ccccc2)C(=O)N[C@@H](C)C(=O)N1C | -4.60 | -3.78 |
| CC(C)C[C@@H]1NC(=O)[C@H](C)NC(=O)[C@H](Cc2ccccc2)NCCCCCCCCNC1=O | -4.70 | -4.22 |
| CC(C)C[C@@H]1NC(=O)[C@H](Cc2ccccc2)NC(=O)[C@H](C)NCCCCCCNC1=O | -4.20 | -5.21 |
| CC(C)C[C@@H]1NC(=O)[C@@H](C)N(C)C(=O)[C@H](Cc2ccccc2)NCCCCCCN(C)C1=O | -4.60 | -4.40 |
| CC(C)C[C@@H]1NC(=O)[C@@H](C)NC(=O)[C@H](Cc2ccccc2)NCCCCCCN(C)C1=O | -4.60 | -5.11 |
| CC(C)C[C@@H]1NC(=O)[C@H](C)NC(=O)[C@H](Cc2ccccc2)NCCCNC1=O | -4.90 | -5.11 |
| CC(C)[C@@H]1NC(=O)[C@@H](CO)NC(=O)[C@@H](C)NCCCCCCNC1=O | -6.30 | – |
| CC(C)[C@@H]1NC(=O)[C@@H](CO)NC(=O)CNCCCCCCNC1=O | < -7.80 | – |
| CC(C)C[C@H]1C(=O)N(C)CCCCCCN[C@@H](Cc2ccccc2)C(=O)N(C)[C@H](C)C(=O)N1C | -4.50 | -3.70 |
| CC(C)C[C@@H]1NC(=O)[C@@H](Cc2ccc(O)cc2)NC(=O)CNCCCCCCNC1=O | < -8.20 | – |
| CC(C)C[C@H]1C(=O)NCCCCCCN[C@@H](Cc2ccccc2)C(=O)N[C@H](C)C(=O)N1C | -4.60 | -4.41 |
| CC(C)C[C@@H]1C(=O)N(C)CCCCCCN[C@@H](Cc2ccccc2)C(=O)N[C@@H](C)C(=O)N1C | -4.40 | -3.57 |

The first 3 entries again:

| structure (SMILES) | PAMPA (log10 cm/s) | Caco-2 (log10 cm/s) |
|---|---|---|
| CC(C)C[C@H]1NC(=O)[C@H](C)NC(=O)[C@H](Cc2ccccc2)NCCCCCCN(C)C1=O | -4.70 | -3.72 |
| CC(C)C[C@@H]1NC(=O)[C@H](C)NCCCCCCNC(=O)[C@H](Cc2ccccc2)NC1=O | -4.50 | -5.24 |
| CC(C)C[C@H]1NC(=O)[C@@H](C)NCCCCCCNC(=O)[C@H](CO)NC1=O | -5.50 | – |

Source: CycPeptMPDB (Li et al. 2023), which took these values from Le Roux et al. 2020, doi:10.1021/acs.jmedchem.0c00013.